# Values quoted from earlier work, collected in paper PMC6816013 (Journal of Medicinal Chemistry, 2019).
# System: P. falciparum strain 3D7A
# Conditions: result in words; previous study ref 17; cited from earlier work
compound,measurement,value
Cc1cn2c(-c3ccnc(NCC4CC4)n3)c(-c3ccc(F)c(NS(C)(=O)=O)c3)nc2cc1CN(C)C [Compound 2],rate of killing in PRR study,slow parasite killing kinetics
